Data: patent US20250326733A1, “A NEW ROUTE FOR SY[…] CHIRAL CANNABINOIDS FROM COUMARINS” (University of Florida Research Foundation, Inc., priority 2021, published 2025)

Amino acid sequences for entries named in this document (tags omitted).
UniProt P34972, whole entry: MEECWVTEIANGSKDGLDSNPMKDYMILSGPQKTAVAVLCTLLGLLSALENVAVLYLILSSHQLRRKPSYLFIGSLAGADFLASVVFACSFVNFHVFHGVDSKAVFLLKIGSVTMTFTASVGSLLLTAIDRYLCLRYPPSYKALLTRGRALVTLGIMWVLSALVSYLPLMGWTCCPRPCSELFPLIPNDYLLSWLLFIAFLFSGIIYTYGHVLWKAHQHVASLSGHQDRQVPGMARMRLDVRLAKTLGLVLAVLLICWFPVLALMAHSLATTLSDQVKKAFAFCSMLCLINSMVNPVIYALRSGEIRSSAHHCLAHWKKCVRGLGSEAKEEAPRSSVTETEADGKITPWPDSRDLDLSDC

Target: hCB2R (Homo sapiens, UniProt P34972)
Experiment: Binding affinity at human cannabinoid receptor 2

C=C(C)[C@@H]1CCC(C)=C[C@H]1c1c(O)cc(CCCCC)cc1O [CBD, cannabidiol, reference compound] gave a Ki of 1410 nM.
